{"source": "patent US20250134912A1", "about": "“COMPOSITIONS COMPRISING COCRYSTALS OF […] ACID AND THEANINE WITH TROMETHAMINE AND METHODS OF USE” (Theaprin Pharmaceuticals, Inc., priority 2021, published 2025)", "origin": "cited, not measured here", "biological_target": "SARS-COV-2 protease Mpro (Severe acute respiratory syndrome coronavirus 2, UniProt P0DTD1)", "conditions": "identified via virtual screening and bioassay validation"}
{"compound": "OCCN(CCO)c1nc(N2CCCCC2)c2nc(N(CCO)CCO)nc(N3CCCCC3)c2n1", "note": "[dipyridamole, 2,6 bis-(diethanolamino)-4,8 dipiperidino-pyrimido-(5,4-d)pyrimidine]", "values": [{"measurement": "binding to SARS-COV-2 protease Mpro", "value": "bound"}]}
